Source: PubChem BioAssay (NCI)
Some tests of the compounds listed are not included; inactive here does not mean inactive elsewhere.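 All cell lines were grown in 96-well plates and treated with compound for 48 hours. At the GI50, growth is halved. At the TGI there is no net growth.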

What was measured:
Experiment in all cases: NCI tumour cell line growth inhibition, 48 h
SK-MEL-5 melanoma = system: SK-MEL-5 melanoma
K-562 leukemia = system: K-562 leukemia
NCI-H226 lung = system: NCI-H226 lung
UO-31 renal = system: UO-31 renal
OVCAR-5 ovarian = system: OVCAR-5 ovarian
SW-620 colon = system: SW-620 colon
RXF 393 renal = system: RXF 393 renal
NCI-H23 lung = system: NCI-H23 lung
A549 NSCLC = system: A549 NSCLC
PC-3 prostate = system: PC-3 prostate
T-47D breast = system: T-47D breast
EKVX NSCLC = system: EKVX NSCLC
SK-MEL-28 melanoma = system: SK-MEL-28 melanoma
HCC-2998 colon = system: HCC-2998 colon
IGROV1 ovarian = system: IGROV1 ovarian
MALME-3M melanoma = system: MALME-3M melanoma
SF-539 CNS = system: SF-539 CNS
SNB-75 CNS = system: SNB-75 CNS
HT29 colon = system: HT29 colon
HCT-15 colon = system: HCT-15 colon
SF-295 CNS = system: SF-295 CNS
CCRF-CEM leukemia = system: CCRF-CEM leukemia
UACC-62 melanoma = system: UACC-62 melanoma
MOLT-4 leukemia = system: MOLT-4 leukemia
TK-10 renal = system: TK-10 renal
SN12C renal = system: SN12C renal
OVCAR-8 ovarian = system: OVCAR-8 ovarian
RPMI-8226 leukemia = system: RPMI-8226 leukemia
HCT-116 colon = system: HCT-116 colon
ACHN renal = system: ACHN renal
UACC-257 melanoma = system: UACC-257 melanoma
MDA-MB-435 = system: MDA-MB-435
M14 melanoma = system: M14 melanoma
NCI-H522 lung = system: NCI-H522 lung
COLO 205 colon = system: COLO 205 colon
HOP-62 NSCLC = system: HOP-62 NSCLC
786-0 renal = system: 786-0 renal
LOX IMVI melanoma = system: LOX IMVI melanoma
HL-60(TB) leukemia = system: HL-60(TB) leukemia
SF-268 CNS = system: SF-268 CNS
DU-145 prostate = system: DU-145 prostate
KM12 colon = system: KM12 colon
SR leukemia = system: SR leukemia
U251 CNS = system: U251 CNS
BT-549 breast = system: BT-549 breast
OVCAR-3 ovarian = system: OVCAR-3 ovarian
MCF7 breast = system: MCF7 breast
MDA-MB-231 breast = system: MDA-MB-231 breast
MDA-N = system: MDA-N
SNB-19 CNS = system: SNB-19 CNS
SK-OV-3 ovarian = system: SK-OV-3 ovarian
NCI/ADR-RES ovarian = system: NCI/ADR-RES ovarian

CC(C)/C=C\C(O)(C(=O)OC1CN2CCC1CC2)c1ccccc1 (centres undefined)
GI50 (SK-MEL-5 melanoma): > 100 µM | TGI (SK-MEL-5 melanoma): > 100 µM | GI50 (K-562 leukemia): > 100 µM | TGI (K-562 leukemia): > 100 µM | GI50 (NCI-H226 lung): > 100 µM | TGI (NCI-H226 lung): > 100 µM | GI50 (UO-31 renal): 57.6 µM | TGI (UO-31 renal): > 100 µM | GI50 (OVCAR-5 ovarian): 85.4 µM | TGI (OVCAR-5 ovarian): > 100 µM | GI50 (SW-620 colon): > 100 µM | TGI (SW-620 colon): > 100 µM | GI50 (RXF 393 renal): > 100 µM | TGI (RXF 393 renal): > 100 µM | GI50 (NCI-H23 lung): > 100 µM | TGI (NCI-H23 lung): > 100 µM | GI50 (A549 NSCLC): > 100 µM | TGI (A549 NSCLC): > 100 µM | GI50 (PC-3 prostate): > 100 µM | TGI (PC-3 prostate): > 100 µM | GI50 (T-47D breast): > 100 µM | TGI (T-47D breast): > 100 µM | GI50 (EKVX NSCLC): > 100 µM | TGI (EKVX NSCLC): > 100 µM | GI50 (SK-MEL-28 melanoma): > 100 µM | TGI (SK-MEL-28 melanoma): > 100 µM | GI50 (HCC-2998 colon): > 100 µM | TGI (HCC-2998 colon): > 100 µM | GI50 (IGROV1 ovarian): > 100 µM | TGI (IGROV1 ovarian): > 100 µM | GI50 (MALME-3M melanoma): > 100 µM | TGI (MALME-3M melanoma): > 100 µM | GI50 (SF-539 CNS): > 100 µM | TGI (SF-539 CNS): > 100 µM | GI50 (SNB-75 CNS): > 100 µM | TGI (SNB-75 CNS): > 100 µM | GI50 (HT29 colon): > 100 µM | TGI (HT29 colon): > 100 µM | GI50 (HCT-15 colon): > 100 µM | TGI (HCT-15 colon): > 100 µM | GI50 (SF-295 CNS): > 100 µM | TGI (SF-295 CNS): > 100 µM | GI50 (CCRF-CEM leukemia): > 100 µM | TGI (CCRF-CEM leukemia): > 100 µM | GI50 (UACC-62 melanoma): > 100 µM | TGI (UACC-62 melanoma): > 100 µM | GI50 (MOLT-4 leukemia): > 100 µM | TGI (MOLT-4 leukemia): > 100 µM | GI50 (TK-10 renal): > 100 µM | TGI (TK-10 renal): > 100 µM | GI50 (SN12C renal): > 100 µM | TGI (SN12C renal): > 100 µM | GI50 (OVCAR-8 ovarian): > 100 µM | TGI (OVCAR-8 ovarian): > 100 µM | GI50 (RPMI-8226 leukemia): > 100 µM | TGI (RPMI-8226 leukemia): > 100 µM | GI50 (HCT-116 colon): > 100 µM | TGI (HCT-116 colon): > 100 µM | GI50 (ACHN renal): > 100 µM | TGI (ACHN renal): > 100 µM | GI50 (UACC-257 melanoma): > 100 µM | TGI (UACC-257 melanoma): > 100 µM | GI50 (MDA-MB-435): > 100 µM | TGI (MDA-MB-435): > 100 µM | GI50 (M14 melanoma): > 100 µM | TGI (M14 melanoma): > 100 µM | GI50 (NCI-H522 lung): > 100 µM | TGI (NCI-H522 lung): > 100 µM | GI50 (COLO 205 colon): > 100 µM | TGI (COLO 205 colon): > 100 µM | GI50 (HOP-62 NSCLC): > 100 µM | TGI (HOP-62 NSCLC): > 100 µM | GI50 (786-0 renal): > 100 µM | TGI (786-0 renal): > 100 µM | GI50 (LOX IMVI melanoma): > 100 µM | TGI (LOX IMVI melanoma): > 100 µM | GI50 (HL-60(TB) leukemia): > 100 µM | TGI (HL-60(TB) leukemia): > 100 µM | GI50 (SF-268 CNS): > 100 µM | TGI (SF-268 CNS): > 100 µM | GI50 (DU-145 prostate): > 100 µM | TGI (DU-145 prostate): > 100 µM | GI50 (KM12 colon): > 100 µM | TGI (KM12 colon): > 100 µM | GI50 (SR leukemia): > 100 µM | TGI (SR leukemia): > 100 µM | GI50 (U251 CNS): > 100 µM | TGI (U251 CNS): > 100 µM | GI50 (BT-549 breast): > 100 µM | TGI (BT-549 breast): > 100 µM | GI50 (OVCAR-3 ovarian): > 100 µM | TGI (OVCAR-3 ovarian): > 100 µM | GI50 (MCF7 breast): > 100 µM | TGI (MCF7 breast): > 100 µM | GI50 (MDA-MB-231 breast): > 100 µM | TGI (MDA-MB-231 breast): > 100 µM | GI50 (MDA-N): > 100 µM | TGI (MDA-N): > 100 µM | GI50 (SNB-19 CNS): > 100 µM | TGI (SNB-19 CNS): > 100 µM | GI50 (SK-OV-3 ovarian): > 100 µM | TGI (SK-OV-3 ovarian): > 100 µM | GI50 (NCI/ADR-RES ovarian): 25.2 µM | TGI (NCI/ADR-RES ovarian): 84.1 µM
